According to US20010029264A1, “Novel methods and compositions for delivery of taxanes” (priority 1998, published 2001):

Test: Oral feasibility PK in dogs (paclitaxel capsules, plasma HPLC)
Assay type: in vivo
Protocol: The formulation was as follows: […]
and was hand filled into single 0 hard gelatin capsules to a dose of approximately 34 mg/capsule.
Capsules were inserted into the esophagus and followed with a brief squirt of water and the animals held until swallowing was observed.

Question: For `CC(=O)O[C@H]1C(=O)[C@@]2(C)[C@H]([C@H](OC(=O)c3ccccc3)[C@]3(O)C[C@H](OC(=O)[C@H](O)[C@@H](NC(=O)c4ccccc4)c4ccccc4)C(C)=C1C3(C)C)[C@]1(OC(C)=O)CO[C@@H]1C[C@@H]2O` [paclitaxel], which “AUC (sum of trapezoids)” value (male beagle FJF-8, oral, 3 capsules Vitamin E TPGS/DMI formulation, 7.66 mg/kg) is on record?
Answer: 202 nghr/mL

Question: And the “AUC (sum of trapezoids)” value (male beagle IOF-8, oral, 3 capsules Vitamin E TPGS/DMI formulation, 6.88 mg/kg)?
Answer: 135 nghr/mL

Question: And the “AUC (sum of trapezoids)” value (male beagle OEF-8, oral, 1 capsule Vitamin E TPGS/DMI formulation, 3.27 mg/kg)?
Answer: 187 nghr/mL

Question: What about the “AUC (sum of trapezoids)” value (male beagle OLF-8, oral, 3 capsules Vitamin E TPGS/DMI formulation, 11.14 mg/kg) of the same compound?
Answer: 189 nghr/mL

Question: And the “AUC (sum of trapezoids)” value (male beagle PXF-8, oral, 1 capsule Vitamin E TPGS/DMI formulation, 3.23 mg/kg)?
Answer: 194 nghr/mL
